Experimental data reported in patent publication US20110009624A9, “BENZIMIDAZOLE COMPOUNDS HAVING GASTRIC ACID SECRETION INHIBITORY ACTION” (priority 2006, published 2011).

Protein sequences, listed by entry. Tags and fused reporters are not part of them.
UniProt P19156, whole entry: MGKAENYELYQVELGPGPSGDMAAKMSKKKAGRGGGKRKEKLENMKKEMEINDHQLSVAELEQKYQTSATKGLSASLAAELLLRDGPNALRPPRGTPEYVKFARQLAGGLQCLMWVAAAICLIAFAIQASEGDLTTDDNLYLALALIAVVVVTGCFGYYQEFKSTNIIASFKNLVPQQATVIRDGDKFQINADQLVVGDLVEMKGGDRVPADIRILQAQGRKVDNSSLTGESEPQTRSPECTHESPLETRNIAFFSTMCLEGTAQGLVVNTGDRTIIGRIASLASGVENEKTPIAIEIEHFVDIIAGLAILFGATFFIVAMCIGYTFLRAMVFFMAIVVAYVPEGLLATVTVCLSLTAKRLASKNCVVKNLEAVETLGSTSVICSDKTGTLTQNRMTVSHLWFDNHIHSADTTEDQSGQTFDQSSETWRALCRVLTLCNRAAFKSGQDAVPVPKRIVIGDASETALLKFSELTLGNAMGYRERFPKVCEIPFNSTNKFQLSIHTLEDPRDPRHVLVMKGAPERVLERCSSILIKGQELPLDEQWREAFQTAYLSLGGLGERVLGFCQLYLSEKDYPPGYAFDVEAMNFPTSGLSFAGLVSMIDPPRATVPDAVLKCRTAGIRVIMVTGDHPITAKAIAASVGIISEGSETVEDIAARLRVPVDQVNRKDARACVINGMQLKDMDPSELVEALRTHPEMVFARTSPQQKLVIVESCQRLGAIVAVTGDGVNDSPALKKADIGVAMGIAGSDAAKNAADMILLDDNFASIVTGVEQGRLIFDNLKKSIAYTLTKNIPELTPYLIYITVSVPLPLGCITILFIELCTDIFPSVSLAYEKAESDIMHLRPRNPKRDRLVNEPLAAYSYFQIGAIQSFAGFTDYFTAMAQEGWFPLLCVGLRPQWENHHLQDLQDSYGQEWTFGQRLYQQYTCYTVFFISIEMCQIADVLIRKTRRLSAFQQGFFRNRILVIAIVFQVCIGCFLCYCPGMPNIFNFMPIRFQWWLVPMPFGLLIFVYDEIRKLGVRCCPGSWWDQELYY
UniProt P18434, whole entry partner: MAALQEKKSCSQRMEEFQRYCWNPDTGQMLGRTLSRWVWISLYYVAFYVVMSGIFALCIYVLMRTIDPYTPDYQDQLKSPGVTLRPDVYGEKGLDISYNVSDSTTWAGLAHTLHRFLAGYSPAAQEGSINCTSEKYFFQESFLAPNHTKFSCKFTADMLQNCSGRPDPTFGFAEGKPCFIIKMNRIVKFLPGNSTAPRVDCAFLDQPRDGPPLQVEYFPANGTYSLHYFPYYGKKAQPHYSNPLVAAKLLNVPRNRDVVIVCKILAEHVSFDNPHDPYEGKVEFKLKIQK

Biological target: H+, K+-ATPase (Sus scrofa, UniProt P19156)
Experiment: H+, K+-ATPase activity inhibitory action
Details: read-out: IC50 of H+, K+-ATPase activity; hog gastric mucosa enzyme, preincubation 30 minutes at 37° C., pH 6.1; tested form: sodium salt
Protocol: H^+, K^+-ATPase Activity Inhibitory Action
H^+, K^+-ATPase was prepared from a fundic gland area of fresh hog gastric mucosa using a variation of the Chang's method [Biochim. Biophys. Acta 464, 313 (1977)].
(1) The sodium salt of 2-[[[4-[3-hydroxy-2-(hydroxymethyl)propoxy]-3,5-dimethylpyridin-2-yl]methyl]sulfinyl]-1H-benzimidazole (Example 15) and (2) 3-[3-hydroxy-2-(hydroxymethyl)propoxy]-2,4-dimethyl-5H-pyrido[1′,2′,4,5][1,2,4]thiadiazino[2,3-a]benzimidazolium hexafluorophosphate (Example 16) were selected for the test compounds, and each was used after dissolving in methanol.
10 μL aliquots of various concentrations of the test compounds or solvent were mixed into 200 μL of 50 μg/mL H^+, K^+-ATPase, 100 μL of 10 mmol/L Pipes-Tris (pH 6.1) and 190 μL of distilled water followed by incubating for 30 minutes at 37° C., adding 150 μL of 100 mmol/L KCl (or distilled water) and 10 μL of 100 μg/mL gramicidin, and further incubating for 10 minutes. […] The amount of inorganic phosphoric acid that was released during this 10 minute period was measured in compliance with the method of Yoda and Hokin (Biochem. Biophys. Res. Commun., 40, 880, 1970). […]
Residual enzyme activity at each concentration of test compound was determined as the amount of H^+, K^+-ATPase activity as a percentage of the H^+, K^+-ATPase activity of a control group (solvent addition). […]

Compound: Cc1cnc(C[S+]([O-])c2nc3ccccc3[nH]2)c(C)c1OCC(CO)CO (stereo not shown)
- IC50: 2030 nM
